Test results published in publication PMC6927764.

Molecular target: Trastuzumab IgG (high-affinity anti-HER2 antibody, bivalent) (human (bound by anti-human Fc sensors))
Test: BLI

Kd: 9.4 µM
koff: 0.19 s⁻¹
kon: 21000 M⁻¹ s⁻¹
Substance: C1q, the first subcomponent of the C1 complement complex (from UniProt P02745;P02746;P02747)
